One compound from ChEMBL document CHEMBL4028881, “Synthesis, Pharmacology, and Molecular Docking Studies on 6-Desoxo-N-methylmorphinans as Potent μ-Opioid Receptor Agonists” (J Med Chem, 2017) can be followed below.

By UniProt entry, the sequences of proteins in these tests, tags left out.
UniProt P35372, whole entry: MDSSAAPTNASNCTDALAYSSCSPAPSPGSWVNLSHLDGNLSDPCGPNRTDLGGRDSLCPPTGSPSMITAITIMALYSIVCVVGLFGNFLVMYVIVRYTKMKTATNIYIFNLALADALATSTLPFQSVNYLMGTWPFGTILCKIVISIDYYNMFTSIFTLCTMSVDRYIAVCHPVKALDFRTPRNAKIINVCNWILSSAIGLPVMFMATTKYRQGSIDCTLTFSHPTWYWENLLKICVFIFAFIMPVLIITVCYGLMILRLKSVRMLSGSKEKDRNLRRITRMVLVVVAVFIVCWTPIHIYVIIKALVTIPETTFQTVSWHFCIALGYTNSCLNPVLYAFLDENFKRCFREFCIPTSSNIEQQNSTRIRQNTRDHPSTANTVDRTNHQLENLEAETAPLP

Assay [1] concerns the target Mu-type opioid receptor (Homo sapiens) (UniProt P35372). Briefly: Displacement of [3H]-DAMGO from recombinant human MOR expressed in CHO cell membranes after 60 mins by liquid scintillation counting. The method in brief:
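Competition binding on membranes from CHO cells stably transfected with recombinant human MOR. Affinity is reported as Ki. Values are mean ± SEM of at least three independent experiments.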
For orientation: Displacement assays read how much labelled ligand stays bound in the presence of the test substance.

Assay [2] shares this target. The experiment in a line: Agonist activity at recombinant human MOR expressed in CHO cell membranes after 60 mins by [35S]GTPgammaS binding assay. The class given is functional. The method in brief:
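[35S]GTPγS binding stimulated by ligand in membranes from CHO cells stably expressing human MOR. Values are mean ± SEM of at least three independent experiments.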
In general terms: GTPγS is a poorly hydrolysed GTP analogue; its binding reports G protein activation.

On to `CO[C@@]12CCC[C@]3(C)Oc4c(O)ccc5c4[C@@]31CCN(C)[C@@H]2C5`, for which the inhibition result in assay [1] was “Dose-dependent effect”. Also, the Activity result in assay [2] was “Dose-dependent effect”.
